The record followed here is PubChem BioAssay AID504796 (The Scripps Research Institute Molecular Screening Center, 2011).

Only a part is listed here, and it is no random draw. Active and inactive are the calls of the source. No stated cut-off is given here; in the data, active means activation above about 20%; inactive means the rest.

This assay is described as follows: fluorescence polarization artefacts, biochemical, artefact control for PKA-R2B activator project (AID 504796).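 Further: Cy5 labelled IP20 peptide probe with compound but no PKA protein.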 As to conditions: FP artifact counterscreen, at 11.4 µM, hits give high values. (In general: In fluorescence polarisation assays a small probe gives low polarisation when free and higher when bound to something large.)

Regarding `COc1ccc(NP(C)(=O)Oc2ccccc2OC)cc1` (stereo unspecified), the activation is inactive: 0.42%.
